For data set [1] the following is noted: risk phrase code R43 or H317; cited from earlier work.
Data set [2] deals with female mice. The data set can be described thus: Skin sensitization test according to the LLNA (Local Lymph Node Assay), BrdU intake. In kind it is in vivo. Particulars: test substance 50.0 w/v % in acetone/olive oil 4/1, 25 μL/auricle once a day for three days; SI less than 3 = negative in skin sensitizing property. As for the experimental part:
Stimulus index (SI) was measured by a skin sensitization test according to the LLNA (Local Lymph Node Assay) as follows.
As a positive control, α-hexyl cinnamaldehyde (HCA, product of Wako Pure Chemical Industries, Ltd.) was used.
As a medium, a mixture liquid of acetone (product of Wako Pure Chemical Industries, Ltd.) and olive oil (product of Fudimi Pharmaceutical Co., Ltd.) in a volume ratio of 4/1 was used.
Before treated with the test materials, the positive control, or the medium control, female mice were acclimated for 8 days including 6-day quarantine. No abnormalities were found in all the mice (used animals) during the quarantine/acclimation period.
Based on the body weights measured 2 days before the initiation of sensitization, they were categorized into 2 groups (4 mice/group) by the body weight stratified random sampling method so that the body weight of each individual was within ±20% of the average body weight of all the individuals. Each of the used animals was 8 weeks old to 9 weeks old at the time of the initiation of sensitization. […]
About 24 hours after the administration of BrdU, the used animals were allowed to undergo euthanasia, and their auricular lymph nodes were sampled. […] Also, the average of the weights of the auricular lymph nodes and the standard error thereof were calculated for each group. […]

The values below come from US10538099B2, “Inkjet recording apparatus, printer, and method for manufacturing cured product” (Ricoh Company, Ltd., priority 2016, dated 2020).

For “Ethylene-oxide-modified trimethylolpropane triacrylate”, the skin sensitizing property entry in data set [1] is listed as “Positive”.
Consider “Ethylene-oxide-modified trimethylolpropane trimethacrylate”, for which the “SI measured by the LLNA test (stimulus index)” value in data set [2] is on record as 1.0.
